Reference: paper PMC2582240, “Enhanced A3 adenosine receptor selectivity of multivalent nucleoside-dendrimer conjugates” (Journal of Nanobiotechnology, 2008)

Protein sequences, listed by entry. Tags and fused reporters are not part of them.
UniProt P30542, whole entry: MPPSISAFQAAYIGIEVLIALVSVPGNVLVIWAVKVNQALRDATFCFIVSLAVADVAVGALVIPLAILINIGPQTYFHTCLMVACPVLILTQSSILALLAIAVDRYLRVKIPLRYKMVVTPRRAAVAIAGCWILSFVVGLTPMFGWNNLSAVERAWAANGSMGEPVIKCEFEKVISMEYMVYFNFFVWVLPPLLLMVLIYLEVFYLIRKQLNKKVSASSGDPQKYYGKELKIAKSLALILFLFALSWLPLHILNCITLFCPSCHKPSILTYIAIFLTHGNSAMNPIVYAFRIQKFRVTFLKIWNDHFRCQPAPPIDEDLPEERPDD

Target: A1 AR (Homo sapiens, UniProt P30542)
Experiment: [35S]GTPγS binding assay in CHO A1 membranes
Type: biochemical
Settings: increasing concentrations of DPCPX incubated with 17, CHO A1 membranes
Description: CHO (Chinese hamster ovary) cells stably expressing the recombinant human ARs were cultured in Dulbecco's modified Eagle medium (DMEM) and F12 (1:1) supplemented with 10% fetal bovine serum, 100 units/mL penicillin, 100 μg/mL streptomycin, and 2 μmol/mL glutamine. After harvesting, cells were homogenized and suspended. Cells were then centrifuged at 500 g for 10 min, and the pellet was resuspended in 50 mM Tris-HCl buffer (pH 7.5) containing 10 mM MgCl2. The suspension was homogenized and was then recentrifuged at 20 000 g for 20 min at 4°C. […] The protein concentration was measured using the BCA Protein Assay Kit from Pierce.
[^35S]GTPγS binding was measured in 200 μl of buffer containing 50 mM Tris-HCl (pH 7.4), 1 mM EDTA, 1 mM MgCl2, 10 μM GDP, 1 mM dithiothreitol, 100 mM NaCl, 3 units/ml adenosine deaminase, 0.2 nM [^35S]GTPγS, 0.004% CHAPS, 0.5% bovine serum albumin and increasing concentrations of the ligands. […] Non-specific binding of [^35S]GTPγS was measured in the presence of 10 μM unlabelled GTPγS. After the filters were washed, they were placed in scintillation vials containing 5 mL of Hydrofluor scintillation buffer and counted using a Perkin Elmer Liquid Scintillation Analyzer. The EC50 values were determined using GraphPad Prism for all assays.

Structure (SMILES): CCCn1c(=O)c2[nH]c(C3CCCC3)nc2n(CCC)c1=O [DPCPX, reference compound]
- Antagonism of [35S]GTPγS binding induced by compound 17: fully inhibit
